{"sequences": {"note": "By UniProt entry, the sequences of proteins in these tests, tags left out. Where a name states a change or a piece, a line headed by the entry shows the natural chain unless it says otherwise.", "UniProt Q00788, whole entry": "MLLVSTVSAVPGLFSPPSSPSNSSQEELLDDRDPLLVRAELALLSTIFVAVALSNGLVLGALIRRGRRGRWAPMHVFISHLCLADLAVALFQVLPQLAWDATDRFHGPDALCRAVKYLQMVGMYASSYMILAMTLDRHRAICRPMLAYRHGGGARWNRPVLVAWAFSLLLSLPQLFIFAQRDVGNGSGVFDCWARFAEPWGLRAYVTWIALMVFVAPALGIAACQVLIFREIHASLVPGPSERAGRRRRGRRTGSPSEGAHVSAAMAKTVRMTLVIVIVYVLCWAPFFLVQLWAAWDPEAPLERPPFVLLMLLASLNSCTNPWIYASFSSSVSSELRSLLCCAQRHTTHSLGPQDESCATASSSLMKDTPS"}, "source": "paper PMC7545998", "about": "“A snake toxin as a theranostic agent for the type 2 vasopressin receptor” (Theranostics, 2020)", "key": {"[1]": {"system": "Sprague-Dawley rats", "assay": "Diuresis and urine osmolality with daily i.p. injection of 3 nmol/kg for 4 days", "format": "in vivo, rat", "conditions": "daily i.p. 3 nmol/kg for 4 days"}, "[2]": {"biological_target": "T1, human V2R (Homo sapiens, UniProt P30518)", "T1 construct": "expressed in transfected cells", "assay": "cAMP production in CHO cells stably expressing hV2R (inverse agonism, cAMP Dynamic 2 kit)", "format": "cell-based", "conditions": "CHO stably expressing hV2R, 20,000 cells/well, 30 min at 37 °C, n=3; read-out: IC50, concentration-dependent decrease in cAMP production"}, "[3]": {"system": "rat model of hyponatremia", "assay": "Rat model of dDAVP-induced hyponatremia", "format": "in vivo", "conditions": "for body weight change referring to D0: MQ1-treated rats"}, "[4]": {"assay": "Plasma pharmacokinetics of MQ1 in rats (UPLC-MS/MS)", "format": "in vivo, rat"}, "[5]": {"biological_target": "T2, hV2R (Homo sapiens, UniProt P30518)", "T2 construct": "expressed in transfected cells", "assay": "[^3H]AVP competition binding, CHO cell line stably expressing hV2R", "conditions": "1 nM [^3H]AVP, mean ± SD, at least three independent experiments in duplicate"}, "[6]": {"system": "Sprague-Dawley rats", "assay": "Observation of toxic effects and therapeutic index in rats", "format": "in vivo, rat"}, "[7]": {"biological_target": "T3, rat V2R (rV2R) (Rattus norvegicus, UniProt Q00788)", "T3 construct": "expressed in transfected cells; host or cells: COS cells, transient; membranes prepared 48 h after transfection", "assay": "[^3H]AVP competition binding, COS cells transiently expressing rV2R", "conditions": "1 nM [^3H]AVP, COS cell membranes, mean ± SD"}, "[8]": {"conditions": "356 nmol/kg i.p., n = 3, geometric mean"}, "[9]": {"conditions": "356 nmol/kg i.p., non-compartmental analysis"}, "[10]": {"conditions": "356 nmol/kg i.p., plasma, n = 3, harmonic mean"}}}
{"substance": "mambaquaretin [MQ1]", "values": [{"measurement": "fold decrease of osmolality vs control rats", "setting": "[1]", "result": 4.3, "unit": "fold"}, {"measurement": "fold increase of diuresis vs control rats", "setting": "[1]", "result": 4.2, "unit": "fold"}, {"measurement": "IC50", "setting": "[2]", "result": "167 ± 12", "unit": "nM"}, {"measurement": "body weight change referring to D0", "setting": "[3]; D3", "result": "-4.57 ± 0.63", "unit": "%"}, {"measurement": "body weight change referring to D0", "setting": "[3]; D4", "result": "-6.03 ± 0.95", "unit": "%"}, {"measurement": "food intake", "setting": "[3]; during the experiments", "result": "never noted any significant change in food intake"}, {"measurement": "Cmax", "setting": "[4]; 356 nmol/kg (2.27 mg/kg) i.p., n = 3, geometric mean", "result": 2100, "unit": "ng/mL"}, {"measurement": "MQ1 plasma concentrations", "setting": "[4]; 356 nmol/kg i.p., 1 h", "result": 1.709, "unit": "µg/mL"}, {"measurement": "MQ1 plasma concentrations", "setting": "[4]; 356 nmol/kg i.p., 2 h", "result": 0.486, "unit": "µg/mL"}, {"measurement": "MQ1 plasma concentrations", "setting": "[4]; 356 nmol/kg i.p., 3 h", "result": 0.259, "unit": "µg/mL"}, {"measurement": "MQ1 plasma concentrations", "setting": "[4]; 356 nmol/kg i.p., 4 h", "result": 1.239, "unit": "µg/mL"}, {"measurement": "MQ1 plasma concentrations", "setting": "[4]; 356 nmol/kg i.p., 5 h", "result": 0.257, "unit": "µg/mL"}, {"measurement": "MQ1 plasma concentrations", "setting": "[4]; 356 nmol/kg i.p., 6 h", "result": 0.378, "unit": "µg/mL"}, {"measurement": "MQ1 plasma concentrations", "setting": "[4]; 356 nmol/kg i.p., 8 h", "result": 0.150, "unit": "µg/mL"}, {"measurement": "MQ1 plasma concentrations", "setting": "[4]; 356 nmol/kg i.p., 10 h", "result": 0.299, "unit": "µg/mL"}, {"measurement": "MQ1 plasma concentrations", "setting": "[4]; 356 nmol/kg i.p., 12 h", "result": 0.219, "unit": "µg/mL"}, {"measurement": "MQ1 plasma concentrations", "setting": "[4]; 356 nmol/kg i.p., 16 h", "result": 0.154, "unit": "µg/mL"}, {"measurement": "MQ1 plasma concentrations", "setting": "[4]; 356 nmol/kg i.p., 24 h", "result": 0.096, "unit": "µg/mL"}, {"measurement": "MQ1 plasma concentrations", "setting": "[4]; 356 nmol/kg i.p., 48 h, close to limit of quantification", "result": 0.056, "unit": "µg/mL"}, {"measurement": "MQ1 plasma concentrations", "setting": "[4]; 356 nmol/kg i.p., 72 h, close to limit of quantification", "result": 0.092, "unit": "µg/mL"}, {"measurement": "MQ1 plasma concentrations", "setting": "[4]; 356 nmol/kg i.p., 96 h, close to limit of quantification", "result": 0.074, "unit": "µg/mL"}, {"measurement": "AUClast", "setting": "[4]; [8]", "result": 11600, "unit": "ng·h/mL"}, {"measurement": "Clearance/F", "setting": "[4]; [8]", "result": 2.12, "unit": "mL/min/kg"}, {"measurement": "Kel", "setting": "[4]; [8]", "result": 0.0142, "unit": "h⁻¹"}, {"measurement": "Tmax", "setting": "[4]; 356 nmol/kg i.p., n = 3, median (min-max)", "result": "4 (1-6) h"}, {"measurement": "k value, distribution phase of mean PK profile", "setting": "[4]; [9]", "result": 0.2557}, {"measurement": "k value, elimination phase of mean PK profile", "setting": "[4]; [9]", "result": 0.0131}, {"measurement": "T1/2α", "setting": "[4]; [10]", "result": 3.8, "unit": "h"}, {"measurement": "T1/2β", "setting": "[4]; [10]", "result": 31, "unit": "h"}, {"measurement": "pKi for hV2R", "setting": "[5]", "result": "8.33 ± 0.20"}, {"measurement": "observable toxic effects (prostration, spiky coat, appetite or weight loss)", "setting": "[6]; from the lowest to the highest tested dose", "result": "never detected any observable toxic effects"}, {"measurement": "therapeutic index", "setting": "[6]; rats", "result": "about 100"}, {"measurement": "pKi for rV2R", "setting": "[7]", "result": "8.14 ± 0.20"}]}
